Experiment: clinical
Conditions: human, in vivo, 100 mg

**Q.** For `Cc1ccc(C(=O)c2cc(O)c(O)c([N+](=O)[O-])c2)cc1` [TOLCAPONE], which Cmax is on record?
**A.** Its Cmax is 20 µM.

Source: ChEMBL document CHEMBL4196168 (J Med Chem, 2018)
